Membrane permeability of cyclic peptides

Data: CycPeptMPDB; original report Kelly et al. 2021, doi:10.1021/jacs.0c06115.

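The data file gives no further conditions (lipid, pH, time, direction or concentration), and values from different papers need not be comparable. Other peptides of the study may be missing here. Entries at the database's floor value (log10 P of -10) are not listed.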

PAMPA is the parallel artificial membrane permeability assay, which has no cells and reads passive diffusion. P is given in units of 10^-6 cm/s (from log10 values with two decimals); larger means faster passage.

Listed for CC(=O)N1CCC[C@@H]1C(=O)N(C)[C@H](CC(C)C)C(=O)N[C@@H]1C(=O)N[C@@H](CC(C)C)C(=O)N[C@H](CC(C)C)C(=O)N(C)[C@@H](CC(C)C)C(=O)N[C@@H](C)C(=O)N[C@H](CC(C)C)C(=O)N2CCC[C@H]2C(=O)O[C@@H]1C: PAMPA 0.76 × 10^-6 cm/s.
Listed for CC(=O)N1CCC[C@H]1C(=O)N[C@@H]1C(=O)N[C@H](CC(C)C)C(=O)N[C@@H](CC(C)C)C(=O)N[C@@H](CC(C)C)C(=O)N(C)[C@@H](CC(C)C)C(=O)N(C)[C@@H](C)C(=O)N[C@@H](CC(C)C)C(=O)N2CCC[C@@H]2C(=O)O[C@@H]1C: PAMPA 0.54 × 10^-6 cm/s.
Listed for CC(=O)N1CCC[C@H]1C(=O)N(C)[C@@H](CC(C)C)C(=O)N[C@@H]1C(=O)N[C@H](CC(C)C)C(=O)N(C)[C@H](CC(C)C)C(=O)N[C@@H](CC(C)C)C(=O)N(C)[C@@H](C)C(=O)N[C@@H](CC(C)C)C(=O)N2CCC[C@@H]2C(=O)O[C@@H]1C: PAMPA 7.8 × 10^-6 cm/s.
Listed for CC(=O)N1CCC[C@@H]1C(=O)N(C)[C@H](CC(C)C)C(=O)N[C@@H]1C(=O)N(C)[C@@H](CC(C)C)C(=O)N[C@H](CC(C)C)C(=O)N[C@H](CC(C)C)C(=O)N(C)[C@H](C)C(=O)N[C@H](CC(C)C)C(=O)N2CCC[C@@H]2C(=O)O[C@@H]1C: PAMPA 0.68 × 10^-6 cm/s.
Listed for CC(=O)N1CCC[C@@H]1C(=O)N(C)[C@H](CC(C)C)C(=O)N[C@@H]1C(=O)N(C)[C@@H](CC(C)C)C(=O)N(C)[C@H](CC(C)C)C(=O)N(C)[C@@H](CC(C)C)C(=O)N(C)[C@H](C)C(=O)N[C@H](CC(C)C)C(=O)N2CCC[C@H]2C(=O)O[C@@H]1C: PAMPA 3.2 × 10^-6 cm/s.
Listed for CC(=O)N1CCC[C@H]1C(=O)N(C)[C@H](CC(C)C)C(=O)N[C@@H]1C(=O)N[C@H](CC(C)C)C(=O)N(C)[C@H](CC(C)C)C(=O)N(C)[C@@H](CC(C)C)C(=O)N(C)[C@@H](C)C(=O)N[C@@H](CC(C)C)C(=O)N2CCC[C@H]2C(=O)O[C@@H]1C: PAMPA 7.2 × 10^-6 cm/s.
Listed for CC(=O)N1CCC[C@H]1C(=O)N(C)[C@@H](CC(C)C)C(=O)N[C@@H]1C(=O)N[C@@H](CC(C)C)C(=O)N(C)[C@@H](CC(C)C)C(=O)N(C)[C@H](CC(C)C)C(=O)N[C@@H](C)C(=O)N[C@H](CC(C)C)C(=O)N2CCC[C@H]2C(=O)O[C@@H]1C: PAMPA 0.62 × 10^-6 cm/s.
Listed for CC(=O)N1CCC[C@H]1C(=O)N(C)[C@@H](CC(C)C)C(=O)N[C@@H]1C(=O)N(C)[C@@H](CC(C)C)C(=O)N(C)[C@@H](CC(C)C)C(=O)N[C@@H](CC(C)C)C(=O)N(C)[C@H](C)C(=O)N[C@H](CC(C)C)C(=O)N2CCC[C@@H]2C(=O)O[C@@H]1C: PAMPA 1.3 × 10^-6 cm/s.
Listed for CC(=O)N1CCC[C@H]1C(=O)N(C)[C@H](CC(C)C)C(=O)N[C@@H]1C(=O)N(C)[C@@H](CC(C)C)C(=O)N[C@@H](CC(C)C)C(=O)N[C@H](CC(C)C)C(=O)N[C@H](C)C(=O)N[C@@H](CC(C)C)C(=O)N2CCC[C@H]2C(=O)O[C@@H]1C: PAMPA 1.5 × 10^-6 cm/s.
Listed for CC(=O)N1CCC[C@@H]1C(=O)N(C)[C@@H](CC(C)C)C(=O)N[C@@H]1C(=O)N(C)[C@H](CC(C)C)C(=O)N[C@@H](CC(C)C)C(=O)N(C)[C@H](CC(C)C)C(=O)N(C)[C@@H](C)C(=O)N[C@@H](CC(C)C)C(=O)N2CCC[C@H]2C(=O)O[C@@H]1C: PAMPA 3.9 × 10^-6 cm/s.
Listed for CC(=O)N1CCC[C@H]1C(=O)N(C)[C@H](CC(C)C)C(=O)N[C@@H]1C(=O)N[C@@H](CC(C)C)C(=O)N[C@@H](CC(C)C)C(=O)N(C)[C@@H](CC(C)C)C(=O)N(C)[C@@H](C)C(=O)N[C@H](CC(C)C)C(=O)N2CCC[C@H]2C(=O)O[C@@H]1C: PAMPA 0.47 × 10^-6 cm/s.
Listed for CC(=O)N1CCC[C@H]1C(=O)N(C)[C@H](CC(C)C)C(=O)N[C@@H]1C(=O)N[C@@H](CC(C)C)C(=O)N(C)[C@H](CC(C)C)C(=O)N(C)[C@@H](CC(C)C)C(=O)N(C)[C@@H](C)C(=O)N[C@@H](CC(C)C)C(=O)N2CCC[C@H]2C(=O)O[C@@H]1C: PAMPA 4 × 10^-6 cm/s.
Listed for CC(=O)N1CCC[C@H]1C(=O)N(C)[C@@H](CC(C)C)C(=O)N[C@@H]1C(=O)N[C@@H](CC(C)C)C(=O)N[C@@H](CC(C)C)C(=O)N(C)[C@@H](CC(C)C)C(=O)N(C)[C@H](C)C(=O)N[C@H](CC(C)C)C(=O)N2CCC[C@@H]2C(=O)O[C@@H]1C: PAMPA 0.44 × 10^-6 cm/s.
Listed for CC(=O)N1CCC[C@H]1C(=O)N(C)[C@@H](CC(C)C)C(=O)N[C@@H]1C(=O)N(C)[C@@H](CC(C)C)C(=O)N[C@@H](CC(C)C)C(=O)N(C)[C@H](CC(C)C)C(=O)N(C)[C@H](C)C(=O)N[C@@H](CC(C)C)C(=O)N2CCC[C@H]2C(=O)O[C@@H]1C: PAMPA 6 × 10^-6 cm/s.
Listed for CC(=O)N1CCC[C@H]1C(=O)N(C)[C@H](CC(C)C)C(=O)N[C@@H]1C(=O)N[C@H](CC(C)C)C(=O)N[C@H](CC(C)C)C(=O)N[C@@H](CC(C)C)C(=O)N[C@@H](C)C(=O)N[C@@H](CC(C)C)C(=O)N2CCC[C@H]2C(=O)O[C@@H]1C: PAMPA 0.16 × 10^-6 cm/s.
Listed for CC(=O)N1CCC[C@@H]1C(=O)N(C)[C@H](CC(C)C)C(=O)N[C@@H]1C(=O)N[C@H](CC(C)C)C(=O)N[C@@H](CC(C)C)C(=O)N(C)[C@@H](CC(C)C)C(=O)N[C@@H](C)C(=O)N[C@H](CC(C)C)C(=O)N2CCC[C@H]2C(=O)O[C@@H]1C: PAMPA 1.3 × 10^-6 cm/s.
Listed for CC(=O)N1CCC[C@@H]1C(=O)N(C)[C@H](CC(C)C)C(=O)N[C@@H]1C(=O)N[C@H](CC(C)C)C(=O)N[C@H](CC(C)C)C(=O)N(C)[C@H](CC(C)C)C(=O)N(C)[C@H](C)C(=O)N[C@@H](CC(C)C)C(=O)N2CCC[C@H]2C(=O)O[C@@H]1C: PAMPA 0.45 × 10^-6 cm/s.

Excerpt, the final 2 entries:

CC(=O)N1CCC[C@@H]1C(=O)N(C)[C@H](CC(C)C)C(=O)N[C@@H]1C(=O)N[C@H](CC(C)C)C(=O)N[C@@H](CC(C)C)C(=O)N(C)[C@@H](CC(C)C)C(=O)N[C@@H](C)C(=O)N[C@H](CC(C)C)C(=O)N2CCC[C@H]2C(=O)O[C@@H]1C has PAMPA 1.3 × 10^-6 cm/s.
CC(=O)N1CCC[C@@H]1C(=O)N(C)[C@H](CC(C)C)C(=O)N[C@@H]1C(=O)N[C@H](CC(C)C)C(=O)N[C@H](CC(C)C)C(=O)N(C)[C@H](CC(C)C)C(=O)N(C)[C@H](C)C(=O)N[C@@H](CC(C)C)C(=O)N2CCC[C@H]2C(=O)O[C@@H]1C has PAMPA 0.45 × 10^-6 cm/s.